# Data from patent US6503935B1, “Imidazoles and related compounds as α1A agonists” (Abbott Laboratories, priority 1998, dated 2003).
# Amino acid sequences for entries named in this document (tags omitted).
# UniProt P18841, whole entry: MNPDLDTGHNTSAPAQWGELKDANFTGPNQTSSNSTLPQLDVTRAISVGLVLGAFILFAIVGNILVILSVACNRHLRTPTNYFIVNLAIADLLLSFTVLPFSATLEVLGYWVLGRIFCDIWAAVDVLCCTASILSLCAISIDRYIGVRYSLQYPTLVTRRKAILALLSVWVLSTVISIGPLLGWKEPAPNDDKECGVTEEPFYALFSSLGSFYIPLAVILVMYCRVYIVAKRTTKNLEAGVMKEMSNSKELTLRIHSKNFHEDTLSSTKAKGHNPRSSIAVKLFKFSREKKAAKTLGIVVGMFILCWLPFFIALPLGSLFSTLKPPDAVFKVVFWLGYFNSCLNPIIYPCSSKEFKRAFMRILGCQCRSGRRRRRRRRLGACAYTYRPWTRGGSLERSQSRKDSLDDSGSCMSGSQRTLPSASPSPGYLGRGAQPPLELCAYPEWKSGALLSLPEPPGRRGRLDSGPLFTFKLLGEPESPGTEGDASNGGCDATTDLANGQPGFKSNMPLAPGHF
# UniProt P23944, whole entry: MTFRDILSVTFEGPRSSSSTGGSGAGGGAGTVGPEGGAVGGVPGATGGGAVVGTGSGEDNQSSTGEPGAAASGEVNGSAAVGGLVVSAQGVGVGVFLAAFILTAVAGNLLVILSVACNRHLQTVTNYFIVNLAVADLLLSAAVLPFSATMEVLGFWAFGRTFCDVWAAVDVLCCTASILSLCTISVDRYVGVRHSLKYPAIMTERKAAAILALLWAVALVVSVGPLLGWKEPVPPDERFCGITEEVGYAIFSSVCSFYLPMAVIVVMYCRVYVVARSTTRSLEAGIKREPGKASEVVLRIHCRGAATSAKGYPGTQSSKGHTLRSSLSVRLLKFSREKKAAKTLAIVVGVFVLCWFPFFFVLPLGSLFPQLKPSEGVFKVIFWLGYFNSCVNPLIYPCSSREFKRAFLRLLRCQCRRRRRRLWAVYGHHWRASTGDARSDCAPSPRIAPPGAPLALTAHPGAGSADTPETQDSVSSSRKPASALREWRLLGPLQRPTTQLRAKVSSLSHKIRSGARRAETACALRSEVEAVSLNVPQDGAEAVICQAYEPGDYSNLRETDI
# UniProt P15823, whole entry: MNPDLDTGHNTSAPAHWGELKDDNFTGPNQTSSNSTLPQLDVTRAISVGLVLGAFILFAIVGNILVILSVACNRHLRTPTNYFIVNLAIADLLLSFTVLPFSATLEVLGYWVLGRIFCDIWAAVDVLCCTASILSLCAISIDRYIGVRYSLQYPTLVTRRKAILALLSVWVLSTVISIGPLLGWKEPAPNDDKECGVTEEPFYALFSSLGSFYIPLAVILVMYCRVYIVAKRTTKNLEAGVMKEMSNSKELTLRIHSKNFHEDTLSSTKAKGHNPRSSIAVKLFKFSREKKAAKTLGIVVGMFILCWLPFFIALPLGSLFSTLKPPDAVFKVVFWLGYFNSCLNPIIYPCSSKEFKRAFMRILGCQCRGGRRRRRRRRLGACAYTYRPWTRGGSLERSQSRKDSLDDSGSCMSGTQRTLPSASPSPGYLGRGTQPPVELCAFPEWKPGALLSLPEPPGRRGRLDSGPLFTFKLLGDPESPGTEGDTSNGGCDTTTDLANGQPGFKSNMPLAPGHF
# Counter-ions that a name gives are not always drawn. Like-named read-outs stand apart in the source and are kept apart here.
# What was measured:
# α1A (rabbit urethra) = molecular target: T1, α1A (rabbit urethra) (Oryctolagus cuniculus, UniProt O02824); assay: Agonist contraction of smooth muscle tissue, rabbit urethra; assay type: cell-based; details: for EC50: read-out: Agonist Tissue Response (pD2) α1A (rab ureth) (converted)
# T1 construct: tested for α1A functional activity using rabbit urethra; from tissue; host or cells: rabbit urethra
# T1 sequence (O02824 1-466): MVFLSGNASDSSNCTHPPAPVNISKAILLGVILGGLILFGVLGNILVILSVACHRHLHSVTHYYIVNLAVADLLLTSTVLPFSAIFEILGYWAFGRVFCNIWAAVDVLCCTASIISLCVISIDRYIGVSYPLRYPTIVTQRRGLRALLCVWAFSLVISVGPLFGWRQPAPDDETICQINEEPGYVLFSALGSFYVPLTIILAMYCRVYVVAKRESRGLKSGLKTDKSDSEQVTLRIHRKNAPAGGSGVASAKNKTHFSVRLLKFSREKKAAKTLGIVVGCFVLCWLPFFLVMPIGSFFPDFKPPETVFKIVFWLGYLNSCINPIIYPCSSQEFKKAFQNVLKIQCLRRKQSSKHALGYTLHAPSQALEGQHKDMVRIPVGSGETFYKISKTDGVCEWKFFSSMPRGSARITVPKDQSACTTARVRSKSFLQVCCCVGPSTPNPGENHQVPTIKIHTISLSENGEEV
# Method: Most of the compounds were tested for α1A functional activity using rabbit urethra as follows. Female New Zealand white rabbits (2.0-3.5 Kg) were sedated with CO2 and decapitated. […] Subsequent experimental conditions were as described above for the other tissues. Agonist concentration response curves were cumulative except for the vas deferens assay in which the transient response made such measurements impractical.
# [1] = molecular target: T2, α1A (rat submaxillary gland) (Rattus norvegicus, UniProt P43140); assay: Radioligand binding with [3H]-prazosin, α1A
# T2 construct: α1A (rat submaxillary gland); from tissue; host or cells: rat submaxillary gland
# T2 sequence (P43140 1-466): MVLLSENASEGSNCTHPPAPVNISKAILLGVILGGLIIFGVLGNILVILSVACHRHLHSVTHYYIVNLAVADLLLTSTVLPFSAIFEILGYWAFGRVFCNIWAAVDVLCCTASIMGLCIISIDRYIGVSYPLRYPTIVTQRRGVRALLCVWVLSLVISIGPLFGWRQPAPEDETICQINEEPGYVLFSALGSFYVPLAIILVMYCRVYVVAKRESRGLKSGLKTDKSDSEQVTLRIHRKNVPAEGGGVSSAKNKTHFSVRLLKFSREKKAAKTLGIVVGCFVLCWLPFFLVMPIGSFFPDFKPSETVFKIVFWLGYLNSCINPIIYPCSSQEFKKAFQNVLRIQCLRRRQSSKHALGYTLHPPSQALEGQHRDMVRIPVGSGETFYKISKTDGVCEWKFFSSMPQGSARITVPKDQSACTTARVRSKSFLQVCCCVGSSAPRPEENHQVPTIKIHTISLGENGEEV
# Method: (§1) For purposes of discussing α1 adrenoceptor subtypes, the IUPHAR convention of using lower case letters to define molecular clones and upper case letters to indicate pharmacologically defined adrenoceptors has been followed. Compounds of formula I were evaluated in radioligand binding assays specific for α1A (rat submaxillary gland), α1b (hamster receptor expressed in mouse fibroblasts) and α1d (rat receptor expressed in mouse fibroblasts) using [^3H]-prazosin as the radioligand as described in Knepper, et al. J. Pharm.
# [2] = molecular target: T3, α1b (hamster receptor expressed in mouse fibroblasts) (Mesocricetus auratus, UniProt P18841); assay: Radioligand binding with [3H]-prazosin, α1b
# T3 construct: expressed in transfected cells; host or cells: mouse fibroblasts
# Method: as §1
# [3] = molecular target: T4, α1d (rat receptor expressed in mouse fibroblasts) (Rattus norvegicus, UniProt P23944); assay: Radioligand binding with [3H]-prazosin, α1d
# T4 construct: expressed in transfected cells; host or cells: mouse fibroblasts
# Method: as §1
# α1B (rat spleen) = molecular target: T5, α1B (rat spleen) (Rattus norvegicus, UniProt P15823); assay: Agonist contraction of smooth muscle tissue, rat spleen; assay type: cell-based; details: read-out: Agonist Tissue Response (pD2) α1B (rat spleen) (converted)
# T5 construct: α1B (rat spleen) and α1D (rat aorta) receptors; from tissue; host or cells: rat spleen
# α1D (rat aorta) = molecular target: T6, α1D (rat aorta) (Rattus norvegicus, UniProt P23944); assay: Agonist contraction of smooth muscle tissue, rat aorta; assay type: cell-based; details: endothelium removed, read-out: Agonist Tissue Response (pD2) α1D (rat aorta) (converted)
# T6 construct: α1B (rat spleen) and α1D (rat aorta) receptors; from tissue; host or cells: rat aorta strips, endothelium removed
# Anesthetized Dogs = assay: Intraurethral pressure (IUP) in anesthetized dogs; assay type: in vivo, dog; details: anesthetized female dogs, iv
# Excerpt: In vivo Functional Assays-Assessment of Intrurethral Pressure (IUP) and Mean Arterial Pressure (MAP) in Anesthetized Dogs
# Female dogs (Marshall Farms, North Rose, N.Y.) greater that 2 years of age and weighing between 12 and 15 kg were used in these studies. At least 2 weeks prior to any agonist dosing, dogs were instrumented for the chronic measurement of arterial blood pressure by implanting a telemetry transducer/transmitter (TA11PA-C40, Data Sciences International, St. Paul, Minn.) into a carotid artery.
# On the test day, dogs fasted since the previous afternoon were pre-anesthetized with thiopental sodium 15 mg/kg i.v. (Pentothal™, Abbott) and intubated. Anesthesia was maintained by allowing the dog to spontaneously breathe a mixture of isoflurane (2.5 to 3 volume %) and oxygen delivered by a Narkomed Standard anesthesia system (North American Drager, Telford, Pa.). An Abbocath-T™ i.v. catheter (18-G, Abbott) was inserted into the cephalic vein for the administration of agonists. A telemetry receiver (RA1310, DataSciences) was placed under the head of each dog and was interfaced to a computerized data acquisition system (Modular Instruments Inc.(MI2), Malvern, Pa.) which allowed for the continuous calibrated recording of arterial blood pressure which was electronically filtered to determine its mean value (MAP).
# Dogs with chronic telemetry implants anesthetized as described above were placed in dorsal recumbency and a balloon catheter was inserted into the urethral orifice and advanced approximately 15 cm until the tip was well inside the bladder. The balloon was then inflated with 1 ml of room air and the catheter slowly withdrawn until resistance (corresponding to the bladder neck) was evident. The balloon was then deflated and the catheter withdrawn an additional 2 cm. The balloon was then reinflated and its catheter port connected to a Gould Statham P23Dd pressure transducer interfaced to a computerized data acquisition system (Modular Instruments, Inc., Malvern, Pa.) for the measurement of intraurethral pressure. Increasing iv doses of test agonists were administered and the maximum effect of each dose on IUP was recorded. The effect of each dose was allowed to return to baseline before the next dose was given.
# From the resulting dose response curve, an ED5 value, for the dose causing a maximum increase in IUP of 5 mm Hg, could be estimated. An ED20 value for the dose causing a maximum increase in MAP of 20 mm Hg could also be estimated. A selectivity ratio of MAP ED20 vs. IUP ED5 was calculated.
# [4] = Radioligand Binding Ki α1d (Rat)
Molecule,Agonist Tissue Response (pD2) α1A (rab ureth) (α1A (rabbit urethra)),Ki [1] [µM],Ki [2] [µM],"Ki [3, 4] [µM]",EC50 (α1A (rabbit urethra)) [µM],EC50 (α1B (rat spleen)) [µM],EC50 (α1D (rat aorta)) [µM],Mean Selectivity Ratio MAP ED20/IUP ED5 (Anesthetized Dogs),"Ki ([2]; hamster receptor expressed in mouse fibroblasts, [3H]-prazosin, read-out: Radioligand Binding Ki α1b (Hamster)) [µM]",Ki ([3]; read-out: Radioligand Binding Ki α1d (Rat)) [µM]
"5-Chloro-N-[5-(1H-imidazol-5-yl)-5,6,7,8-tetrahydro-1-naphthalenyl]-3-methyl-2,3-dihydro-1-benzothiophene-2-sulfonamide [Example 77]",4.54,,,,,,,,,
"CS(=O)(=O)Nc1cccc2c1CCCC2c1c[nH]cn1.Cl (stereo not shown) [Example 8, N-[5-(1H-imidazol-4-yl)-5,6,7,8-tetrahydro-1-naphthalenyl]methanesulfonamide, hydrochloride]",,0.176,4.62,1.59,0.447,5.13,42.7,4.8,,
"CS(=O)(=O)Nc1cccc2c1CCC[C@H]2c1c[nH]cn1 [Example 9, (+)-N-[(5R)-5-(1H-imidazol-4-yl)-5,6,7,8-tetrahydro-1-naphthalenyl]methanesulfonamide]",,0.091,2,1.91,0.355,> 1000,> 1000,4.4,,
"CS(=O)(=O)Nc1cccc2c1CCC[C@@H]2c1c[nH]cn1 [Example 10, (−)-N-[(5S)-5-(1H-imidazol-4-yl)-5,6,7,8-tetrahydro-1-naphthalenyl]methanesulfonamide]",,1.15,10.4,1.69,21.4,64.6,64.6,,,
"CC(=O)Nc1cccc2c1CCCC2c1c[nH]cn1.O=C(O)/C=C\C(=O)O (stereo not shown) [Example 16, N-[5,6,7,8-tetrahydro-5-(1H-imidazol-4-yl)-1-naphthalenyl]acetamide, maleate]",,0.52,,,1.29,14.5,> 1000,3.1,,
"CS(=O)(=O)Nc1cccc2c1OCCC2c1c[nH]cn1.O=C(O)/C=C\C(=O)O (stereo not shown) [Example 19, N-[4-(1H-imidazol-4-yl)-3,4-dihydro-2H-chromen-8-yl]methanesulfonamide, maleate]",,0.475,,1.15,1,8.13,8.32,,,
"CS(=O)(=O)Nc1cccc(Cc2c[nH]cn2)c1.O=C(O)/C=C\C(=O)O [Example 21, N-[3-(1H-imidazol-4-ylmethyl)phenyl]methanesulfonamide, maleate]",,,,,,,,2.7,,
"CS(=O)(=O)Nc1cccc2c1CCC2c1c[nH]cn1 (stereo not shown) [Example 22, N-[1-(1H-imidazol-4-yl)-2,3-dihydro-1H-inden-4-yl]methanesulfonamide, maleate]",,0.0919,2.03,0.761,0.166,3.02,8.51,,,
"CCS(=O)(=O)Nc1cccc2c1CCC2c1c[nH]cn1.O=C(O)/C=C\C(=O)O (stereo not shown) [Example 39, N-[1-(1H-imidazol4-yl)-2,3-dihydro-1H-inden-4-yl]ethanesulfonamide, maleate]",,,2.01,0.969,0.0661,> 1000,> 1000,,,
"CCS(=O)(=O)Nc1cccc(/C(=C/OC)c2c[nH]cn2)c1 [Example 46, N-{3-[(Z)-1-(1H-imidazol-4-yl)-2-methoxyethenyl]phenyl}ethanesulfonamide, maleate]",,0.553,,,12.6,,,,1.14,0.358
"CS(=O)(=O)Nc1cccc2c1CCC=C2c1c[nH]cn1 [Example 47, N-[5-(1H-imidazol-4-yl)-7,8-dihydro-1-naphthalenyl]methanesulfonamide, maleate]",,0.83,,2.14,28.8,> 1000,> 1000,,,
